Results on one molecule are retold here after patent US6462038B1, “Androgen receptor modulator compounds and methods” (Ligand Pharmaceuticals, Inc., priority 1999, dated 2002).

By UniProt entry, the sequences of proteins in these tests, tags left out. Where a name states a change or a piece, a line headed by the entry shows the natural chain unless it says otherwise.
UniProt P10275: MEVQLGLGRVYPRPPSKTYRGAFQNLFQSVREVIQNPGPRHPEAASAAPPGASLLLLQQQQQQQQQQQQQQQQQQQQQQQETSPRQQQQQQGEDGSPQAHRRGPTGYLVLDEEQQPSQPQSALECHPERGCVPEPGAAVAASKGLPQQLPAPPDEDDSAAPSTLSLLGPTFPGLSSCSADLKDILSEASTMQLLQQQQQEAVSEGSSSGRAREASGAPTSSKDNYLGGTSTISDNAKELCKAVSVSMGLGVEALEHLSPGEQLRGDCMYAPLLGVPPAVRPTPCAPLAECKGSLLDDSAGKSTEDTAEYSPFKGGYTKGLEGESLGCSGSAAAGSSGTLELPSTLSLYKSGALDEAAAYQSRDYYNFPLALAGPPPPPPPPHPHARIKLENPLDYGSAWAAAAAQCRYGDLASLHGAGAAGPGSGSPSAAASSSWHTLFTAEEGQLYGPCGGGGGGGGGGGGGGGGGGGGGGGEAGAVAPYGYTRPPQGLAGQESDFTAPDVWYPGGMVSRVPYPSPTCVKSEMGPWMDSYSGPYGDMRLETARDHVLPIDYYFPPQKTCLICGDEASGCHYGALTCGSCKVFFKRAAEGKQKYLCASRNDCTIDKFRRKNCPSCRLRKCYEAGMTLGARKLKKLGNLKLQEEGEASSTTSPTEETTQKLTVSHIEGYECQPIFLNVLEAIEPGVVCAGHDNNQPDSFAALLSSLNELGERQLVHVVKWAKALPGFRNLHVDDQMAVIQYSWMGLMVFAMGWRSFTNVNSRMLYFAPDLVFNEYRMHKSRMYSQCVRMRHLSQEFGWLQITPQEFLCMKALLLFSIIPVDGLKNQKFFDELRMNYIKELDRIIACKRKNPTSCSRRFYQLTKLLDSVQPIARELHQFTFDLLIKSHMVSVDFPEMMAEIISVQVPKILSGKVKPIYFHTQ

pEC50, pIC50: −log10 of the molar value. Some results are limits rather than exact numbers.

What all share (assay type): cell-based
For experiment [1], the target named is T1, hAR (Homo sapiens, UniProt P10275).
T1 construct: expressed in transfected cells; host or cells: CV-1 cells (African green monkey kidney fibroblasts)
Briefly: co-transfection assay, AR antagonist (in presence of DHT), CV-1 cells.

The target of experiment [2] is T2, PR (Homo sapiens, UniProt P06401).
T2 construct: expressed in transfected cells; host or cells: CV-1 cells
T2 sequence (P06401 1-933): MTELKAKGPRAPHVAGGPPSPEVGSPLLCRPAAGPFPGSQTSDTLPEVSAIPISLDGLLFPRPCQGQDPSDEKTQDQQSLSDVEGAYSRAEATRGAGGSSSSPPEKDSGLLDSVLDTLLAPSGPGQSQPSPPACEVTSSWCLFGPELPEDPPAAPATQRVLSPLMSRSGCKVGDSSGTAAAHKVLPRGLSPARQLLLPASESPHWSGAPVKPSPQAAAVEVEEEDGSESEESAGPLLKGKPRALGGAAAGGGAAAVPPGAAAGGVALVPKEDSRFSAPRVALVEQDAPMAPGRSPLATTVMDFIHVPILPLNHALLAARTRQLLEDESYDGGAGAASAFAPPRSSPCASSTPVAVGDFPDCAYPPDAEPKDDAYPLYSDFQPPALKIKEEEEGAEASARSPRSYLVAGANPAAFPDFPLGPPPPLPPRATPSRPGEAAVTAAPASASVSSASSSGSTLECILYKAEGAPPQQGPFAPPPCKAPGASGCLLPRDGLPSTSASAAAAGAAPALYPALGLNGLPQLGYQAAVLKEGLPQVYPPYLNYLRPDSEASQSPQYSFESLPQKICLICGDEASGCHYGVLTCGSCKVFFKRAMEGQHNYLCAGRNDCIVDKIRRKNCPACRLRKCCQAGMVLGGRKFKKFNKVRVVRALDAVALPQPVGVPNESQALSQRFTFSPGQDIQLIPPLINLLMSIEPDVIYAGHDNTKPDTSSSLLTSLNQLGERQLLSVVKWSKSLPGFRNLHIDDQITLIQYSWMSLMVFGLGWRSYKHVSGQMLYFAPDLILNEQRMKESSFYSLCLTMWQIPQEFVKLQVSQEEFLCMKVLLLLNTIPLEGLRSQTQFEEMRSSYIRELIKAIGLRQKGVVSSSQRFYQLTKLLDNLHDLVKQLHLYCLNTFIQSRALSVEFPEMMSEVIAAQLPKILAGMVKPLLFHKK
Briefly: co-transfection assay, PR agonist.

Experiment [3] deals with T2, PR. Nature of the experiment: co-transfection assay, PR antagonist (in presence of progesterone).
Another experiment deals with T3, GR (Homo sapiens, UniProt P04150).
T3 construct: expressed in transfected cells; host or cells: CV-1 cells
T3 sequence (P04150 1-777): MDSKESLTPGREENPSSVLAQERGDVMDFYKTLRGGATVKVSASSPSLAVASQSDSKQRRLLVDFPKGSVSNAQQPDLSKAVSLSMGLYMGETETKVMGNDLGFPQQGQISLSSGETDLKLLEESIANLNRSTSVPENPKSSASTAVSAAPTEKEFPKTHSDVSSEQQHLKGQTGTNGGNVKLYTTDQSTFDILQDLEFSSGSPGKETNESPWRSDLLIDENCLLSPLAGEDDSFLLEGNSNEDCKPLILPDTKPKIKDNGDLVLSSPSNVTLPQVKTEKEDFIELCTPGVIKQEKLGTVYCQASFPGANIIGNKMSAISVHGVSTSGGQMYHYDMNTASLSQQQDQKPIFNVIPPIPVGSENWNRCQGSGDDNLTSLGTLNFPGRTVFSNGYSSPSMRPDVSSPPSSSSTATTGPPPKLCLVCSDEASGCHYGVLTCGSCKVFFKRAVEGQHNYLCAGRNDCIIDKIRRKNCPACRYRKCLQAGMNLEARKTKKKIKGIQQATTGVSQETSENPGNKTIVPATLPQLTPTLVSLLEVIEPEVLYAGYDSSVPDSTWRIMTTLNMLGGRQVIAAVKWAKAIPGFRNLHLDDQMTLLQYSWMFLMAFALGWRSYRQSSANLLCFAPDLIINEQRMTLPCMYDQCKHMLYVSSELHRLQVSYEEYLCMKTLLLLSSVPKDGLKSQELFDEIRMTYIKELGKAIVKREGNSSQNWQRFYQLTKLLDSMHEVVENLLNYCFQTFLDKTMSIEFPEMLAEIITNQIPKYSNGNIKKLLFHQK
Briefly: co-transfection assay, GR antagonist.

Experiment [4] has as its target T1, hAR. Briefly: co-transfection assay, AR agonist, CV-1 cells. The conditions noted are these: AR Potency Agon (nM), Table 2.
The target of the next experiment is T4, MR (Homo sapiens, UniProt P08235).
T4 construct: expressed in transfected cells; host or cells: CV-1 cells
T4 sequence (P08235 1-984): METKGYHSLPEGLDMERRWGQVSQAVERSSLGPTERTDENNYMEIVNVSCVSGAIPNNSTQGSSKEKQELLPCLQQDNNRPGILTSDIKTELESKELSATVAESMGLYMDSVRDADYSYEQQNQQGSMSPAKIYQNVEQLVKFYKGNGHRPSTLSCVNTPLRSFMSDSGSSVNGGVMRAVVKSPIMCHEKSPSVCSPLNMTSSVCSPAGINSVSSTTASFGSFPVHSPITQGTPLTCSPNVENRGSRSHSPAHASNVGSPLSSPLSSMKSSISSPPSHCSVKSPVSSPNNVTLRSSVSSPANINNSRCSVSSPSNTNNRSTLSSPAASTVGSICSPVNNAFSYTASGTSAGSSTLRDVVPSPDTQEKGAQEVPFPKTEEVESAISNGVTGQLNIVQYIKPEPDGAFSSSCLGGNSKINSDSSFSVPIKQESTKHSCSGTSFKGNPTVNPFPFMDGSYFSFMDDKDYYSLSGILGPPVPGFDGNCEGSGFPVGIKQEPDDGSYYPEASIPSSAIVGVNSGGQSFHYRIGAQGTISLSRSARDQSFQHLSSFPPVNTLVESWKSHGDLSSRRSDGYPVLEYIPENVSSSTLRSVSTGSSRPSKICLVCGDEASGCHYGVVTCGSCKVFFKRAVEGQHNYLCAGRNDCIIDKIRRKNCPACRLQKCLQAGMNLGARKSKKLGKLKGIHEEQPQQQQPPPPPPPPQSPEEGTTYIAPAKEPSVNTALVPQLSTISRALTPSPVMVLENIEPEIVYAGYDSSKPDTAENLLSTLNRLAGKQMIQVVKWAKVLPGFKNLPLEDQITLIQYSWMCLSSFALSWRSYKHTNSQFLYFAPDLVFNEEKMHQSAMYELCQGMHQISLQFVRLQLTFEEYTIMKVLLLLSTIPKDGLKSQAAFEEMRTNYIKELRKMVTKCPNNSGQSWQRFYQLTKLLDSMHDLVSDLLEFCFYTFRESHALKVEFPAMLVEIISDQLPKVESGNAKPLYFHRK
Nature of the experiment: co-transfection assay, MR antagonist.

As for `CCCCN(C)C(=O)CCCCCCCCCC[C@@H]1Cc2cc(O)ccc2[C@H]2CC[C@]3(C)[C@@H](O)CC[C@H]3[C@H]12` [ICI 164, N-butyl-3,17-dihydroxy-N-methyl-(7-alpha,17-beta)-estra-1,3,5(10)-triene-7-undecanamide, reference compound], the pIC50 on hAR [1], at PR [3], at GR and on MR was under 5.00 throughout. Also, the pEC50 (as a rule, the negative decadic logarithm of the EC50, by convention in mol/L) at PR [2] is under 5.00. Besides, the EC50 (usually the concentration at which the effect is half-maximal) at hAR [4] is over 10000 nM.
